Results published in patent US8268635B2, “Methods of identifying agents that selectively activate p38 and/or NKkB signaling” (priority 2006, dated 2012).

How the values were obtained:
[1] = tested on: ERK1/ERK2; test: ERK1/ERK2 activity in WEHI-164 cells; format: cell-based; conditions: 15 mins; TNF 1000 U/ml, TNF132-150 100 μg/ml
Procedure: The level of myelin basic protein phosphorylation was quantitated by an Instant Imager. A representative radiogram from the Instant Imager and pooled data (means±SEM of 3 experiments) are shown.
WEHI-164 cells were cultured in 28 cm^2 dishes to approx 80% confluence before the desired treatment. […] After washing twice with cold HBSS, cells were harvested by scraping and lysed in 400 μl of buffer A (20 mM HEPES, pH 7.4, 0.5% (v/v) Nonidet P-40, 100 mM NaCl, 1 mM EDTA, 2 mM Na3VO4, 2 mM dithiothreitol, 1 mM phenylmethylsulfonyl fluoride, and 10 μg/ml Sigma 104, leupeptin, aprotonin, pepstatin A, and benzamidine) for 2 h at 4° C. with constant mixing (Hii et al. (1998) J Biol Chem. 273(30):19277-82). After centrifugation (12,000 g×5 min), the supernatants were collected and the protein content of the lysates was determined by Lowry's method of protein determination. A solid phase assay using glutathione-S-transferase (GST)-conjugated-jun (1-79) was employed to assay JNK activity (Hii et al. (1998) J Biol Chem. 273(30):19277-82) GST-jun (1-79) was fractionated on 12% SDS polyacrylamide gels and the bands were detected and radioactivity determined using an Instant Imager (Packard Instruments, Canberra, Australia). […]

[2] = tested on: JNK; test: JNK activation in neutrophils in suspension; format: cell-based, human; conditions: 15 min; TNF 100 U/ml, TNF70-80 10 μM, anisomycin 2.5 μg/ml
Excerpt: The blots were stripped and reprobed with anti-JNK1 antibody which detected the p46-kDa JNK1 isotype in each lane. […] The cells were lysed and the lysate assessed by western blot analysis for the level of dual-phosphorylated ERK1/ERK2 (top panel) and ERK2 protein (bottom panel). […] The level of myelin basic protein phosphorylation was quantitated by an Instant Imager. Results presented (a and b) are from one experiment, representative of three-four experiments, each conducted using cells from a different donor.
Neutrophils were prepared from peripheral blood of healthy donors by a rapid single-step technique (Kumaratilake, L. M., Rathjen, D. A., Mack, P., Widmer, F., Prasertsiriroj, V., and Ferrante, A. (1995) J. Clin. Invest. 95: 2315-2323) using Hypaque-Ficoll and according to the institution's guidelines on human ethics. The preparations of neutrophils were routinely of >99% viability and >98% purity. […]
Western blot analysis was conducted as described previously (Hii, C. S., Huang, Z. H., Bilney, A., Costabile, M., Murray, A. W., Rathjen, D. A., Der, C. J., and Ferrante, A. (1998) J. Biol. Chem. 273: 19277-19282). […] The amounts of dually phosphorylated ERK1 and ERK2, phospho-JNK and NFκB p65 subunit were detected using rabbit anti-active ERK, mouse anti-phospho JNK and rabbit anti-NFκB antibody, respectively. […]

TNF: Human recombinant TNF produced by Genentech, Inc.
ERK1/ERK2 activation in WEHI-164 cells [1]: able to activate all three MAP kinases
activity/phosphorylation of JNK in neutrophils in suspension [2]: neither TNF nor TNF70-80 stimulated the activity of either JNK or ERK
